# AlphaSeq binding of Ab-95 light chain variants to a spike HR2 peptide

Reference: Engelhart et al. 2022, doi:10.1038/s41597-022-01779-4. File: FLAb, binding data.

Antigen: PDVDLGDISGINAS, a 14-residue peptide of the SARS-CoV-2 spike HR2 region.

Each scFv is VH, a (GGGGS)3 linker, VL, as in the parent Ab-95, and differs from it in the CDRs of the light chain only.
VH: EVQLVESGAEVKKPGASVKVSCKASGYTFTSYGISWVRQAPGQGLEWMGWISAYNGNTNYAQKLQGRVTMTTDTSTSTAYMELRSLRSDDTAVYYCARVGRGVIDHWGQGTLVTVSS
VL: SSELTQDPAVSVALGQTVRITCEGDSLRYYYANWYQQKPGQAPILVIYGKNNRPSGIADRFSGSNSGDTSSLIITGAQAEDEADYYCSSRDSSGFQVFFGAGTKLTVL

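Phage display of a naive human antibody library on the peptide gave the parent. In library AAYL52, one, two or three CDR residues were substituted; doubles and triples were drawn at random. The assay is AlphaSeq: two haploid yeast populations carry antibody and antigen on their surface. Binding brings cells together so that they mate, and sequencing counts the barcode pairs among the diploids. Each replicate has its own calibration line, from reference interactions of the BCL2 family. There are three technical replicates.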

Positions count from residue 1 of the parent VL; N33S puts S in place of N. Each Kd is an estimate from the mating assay, the geometric mean of the replicates in which the pair was seen; lower is stronger. A pair that was not seen in any replicate is written "nd"; this usually means weak binding, but a binder can also be missed. For reference, the parent read 200 nM as the reference entry and 180 nM as a member of this library. As a blank, each scFv also met three strains without target: over library AAYL52, 28% of these pairings were detected, typically at 8.2 µM and seldom below 800 nM. The control count says in how many pairings with the empty strains this scFv gave a signal.

changes	Kd	seen in	control signals
N33S R53V S92M	6.5 µM	2/3	4/9
E23S S55E R90P	5.1 µM	3/3	5/9
R28A Y30L D91E	2.8 µM	3/3	1/9
N33H D91N F98I	3.3 µM	1/3	2/9
S26K A32D N51K	300 µM	1/3	1/9
A32I S89N D91A	nd	0/3	2/9
E23C D91H S93R	350 µM	1/3	3/9
Y31H K50R	110 nM	3/3	3/9
L27S G49D F95C	nd	0/3	0/9
Y30R S89A R90H	140 nM	3/3	5/9
G24F R53N Q96K	80 µM	2/3	2/9
D25P G49T F95Y	1.8 µM	2/3	3/9
L27W V97H F98K	3.2 µM	1/3	1/9
P54Q S89G G94H	7.9 µM	2/3	6/9
D25Y Y31H D91T	41 nM	3/3	2/9
D25E Y29Q	170 nM	3/3	3/9
P54Y R90N S92E	5.9 µM	2/3	1/9
D25W S55P D91I	2.3 µM	3/3	4/9
S89T S92E Q96R	610 nM	3/3	1/9
D25V R28N G49M	2.1 µM	3/3	3/9
G49A K50L R53M	nd	0/3	2/9
A32I P54W S55E	2.9 µM	1/3	5/9
G24A N51K P54E	nd	0/3	2/9
A32V P54H S92Q	1.7 µM	2/3	0/9
K50A N52Q S88P	4.8 µM	1/3	5/9
N33C S55V S89M	9.0 µM	1/3	3/9
D91A Q96N	870 nM	3/3	1/9
Y29A Y30I	66 nM	3/3	2/9
N51R S88N S93A	25 µM	2/3	2/9
Y30C N33K G49F	1.5 µM	2/3	3/9
N52L S92M	200 nM	3/3	2/9
S89H D91Q Q96C	3.6 µM	1/3	0/9
R28I P54F D91Y	14 µM	2/3	2/9
G94S Q96G V97E	6.1 µM	3/3	5/9
S26N N52H S88E	910 nM	3/3	6/9
Y30F N52W	1.2 µM	2/3	0/9
R28P Y30S Q96P	690 nM	3/3	2/9
A32D S88V G94D	7.5 µM	3/3	5/9
R28T S89W D91H	66 µM	1/3	0/9
N33F R53D S55Q	19 µM	2/3	7/9
L27W K50N N52D	4.1 µM	3/3	1/9
E23L S93Q Q96P	2.3 µM	3/3	2/9
Y31E S89Y F98V	40 nM	3/3	5/9
N33W K50R N52I	3.9 µM	3/3	2/9
R28A N33F D91T	1.2 µM	1/3	1/9
A32V S93C	470 nM	3/3	2/9
Y29F N33C G94N	12 µM	2/3	2/9
K50F N52Q	700 nM	3/3	5/9
E23P D25L Q96N	nd	0/3	0/9
L27H N51I R53Y	nd	0/3	5/9
A32C R90T F98R	760 nM	3/3	6/9
E23W Y30Q F98N	39 nM	3/3	2/9
E23L Y31R G49M	69 µM	2/3	3/9
Y29N N33T N52H	47 µM	1/3	5/9
D91I Q96F V97F	320 nM	3/3	0/9
E23N P54N R90Y	1.6 µM	2/3	2/9
G49Y P54W F95Q	270 µM	1/3	0/9